Source: ChEMBL document CHEMBL5236641, “Persistent challenges in the development of an mGlu7 PAM in vivo tool compound: The discovery of VU6046980” (Bioorg Med Chem Lett, 2023)

Amino acid sequences for entries named in this document (tags omitted).
UniProt P35400, whole entry: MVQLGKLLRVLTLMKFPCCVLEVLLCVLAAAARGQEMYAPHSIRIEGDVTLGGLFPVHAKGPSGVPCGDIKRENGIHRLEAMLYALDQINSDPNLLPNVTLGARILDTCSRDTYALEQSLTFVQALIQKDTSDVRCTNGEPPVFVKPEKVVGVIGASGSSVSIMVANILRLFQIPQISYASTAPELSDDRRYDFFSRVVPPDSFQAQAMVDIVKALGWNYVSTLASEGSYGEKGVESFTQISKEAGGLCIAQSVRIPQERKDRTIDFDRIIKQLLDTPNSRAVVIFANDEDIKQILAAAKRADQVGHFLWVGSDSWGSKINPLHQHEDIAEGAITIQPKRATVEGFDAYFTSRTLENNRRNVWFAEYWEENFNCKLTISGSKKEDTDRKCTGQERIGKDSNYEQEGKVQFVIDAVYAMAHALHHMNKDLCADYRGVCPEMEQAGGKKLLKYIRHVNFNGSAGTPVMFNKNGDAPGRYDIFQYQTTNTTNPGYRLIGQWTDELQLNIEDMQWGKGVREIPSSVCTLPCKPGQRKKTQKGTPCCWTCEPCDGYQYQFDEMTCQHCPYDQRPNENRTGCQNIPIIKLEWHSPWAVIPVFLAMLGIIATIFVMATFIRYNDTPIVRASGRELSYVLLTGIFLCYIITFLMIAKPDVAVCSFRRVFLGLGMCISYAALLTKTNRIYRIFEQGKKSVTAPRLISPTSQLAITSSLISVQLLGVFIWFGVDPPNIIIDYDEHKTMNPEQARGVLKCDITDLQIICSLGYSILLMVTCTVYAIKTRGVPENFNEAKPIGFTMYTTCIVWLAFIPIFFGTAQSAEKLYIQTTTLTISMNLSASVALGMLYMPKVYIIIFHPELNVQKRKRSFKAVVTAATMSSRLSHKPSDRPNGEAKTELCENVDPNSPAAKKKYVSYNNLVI

Each compound was assayed against Metabotropic glutamate receptor 7 (Rattus norvegicus, UniProt P35400) (assay: Positive allosteric modulation of rat mGluR7).

`COc1cc(F)cc2c(N3CCN4c5c(F)cccc5OC[C@@H]4C3)c(C#N)nnc12` and `COc1cc(F)cc2c(N3CCN4c5c(F)cccc5OCC4C3)c(C#N)nnc12` (stereo not drawn) are within 1.5-fold of each other in EC50: 150 nM for the first, 130 nM for the second.

Work on `COc1cc(F)cc2c(N3CCN4c5c(F)cccc5OC[C@H]4C3)c(C#N)nnc12` yielded an EC50 of 56 nM.
